System: surface of the face
Settings: 1-2 ml of 10% aqueous solution applied to surface of the face
Text: The present invention is based on the realization that the aging process and its physical effects on the skin and body involve the activation of a fibrinolytic process. […] The dosage of antifibrinolytic agent(s) should be less than 6 grams per day. […] A particularly advantageous manner of administration for topical delivery is by single use pre-impregnated towelettes applied to the area of the skin to be treated.

NC[C@H]1CC[C@H](C(=O)O)CC1 [tranexamic acid]
absorption of the liquid into the skin: almost immediately absorbed into the skin

Reference: US10792232B2, “Methods to deliver antifibrinolytic drugs for anti-aging results” (MURDOCK TECHNOLOGIES, LLC, priority 2016, dated 2020)
